Assay results from patent publication US7329681B2, “Inhibitors of IMPDH enzyme” (Vertex Pharmaceuticals Incorporated, priority 1996, dated 2008).

What follows are compounds tested against IMPDH human type II (Homo sapiens, UniProt P12268) (assay: IMPDH activity inhibition assay (spectrophotometric, NADH formation at 340 nm)). Conditions: 15 to 50 nM enzyme, 37° C., tight-binding fit (Henderson).
Type: biochemical
Experimental: We have measured the inhibition constants of each compound against IMPDH using an adaptation of the method first reported by […]. Moyed, and […]. Biol. Chem., 226, p. 339 (1957)]. We measured the inhibition constants of the compounds listed in Table III utilizing the following protocol: IMP dehydrogenase activity was assayed following an adaptation of the method first reported by […]. Moyed, H. S. and […]. Biol. Chem. 226, 339]. Enzyme activity was measured spectrophotometrically, by monitoring the increase in absorbance at 340 nm due to the formation of NADH (ε340 is 6220 M^-1 cm^-1). The reaction mixture contained 0.1 M Tris pH 8.0, 0.1 M KCl, 3 mM EDTA, 2 mM DTT, […] and enzyme (IMPDH human type II) at a concentration of 15 to 50 nM. This solution is incubated at 37° C. for 10 minutes. The reaction is started by adding NAD to a final concentration of 0.1 M and the initial rate is measured by following the linear increase in absorbance at 340 nm for 10 minutes. For reading in a standard spectrophotometer (path length 1 cm) the final volume in the cuvette is 1.0 ml. The assay has also been adapted to a 96 well microtiter plate format; in this case the concentrations of all the reagents remain the same and the final volume is decreased to 200 μl. For the analysis of inhibitors, the compound in question is dissolved in DMSO to a final concentration of 20 mM and added to the initial assay mixture for preincubation with the enzyme at a final volume of 2-5% (v/v). The reaction is started by the addition of NAD, and the initial rates measured as above. […] The designation “ND” is used where a given compound was not tested.

Structure (SMILES) | Ki
O=C(Nc1csc(NO)c1)Nc1ccc(-c2cnco2)c(Cl)c1 | 1000 to 10000 nM
Nc1cc(NC(=O)Nc2ccc(-c3cnco3)c(Cl)c2)cs1 | 1000 to 10000 nM

Next, values leading:

Ki | Structure (SMILES)
1000 to 10000 nM | O=C(Nc1csc([N+](=O)[O-])c1)Nc1ccc(-c2cnco2)c(Cl)c1
0.01 to 50 nM | COc1cc(NC(=O)Nc2cccc(CNC(=O)OC(COCc3ccccc3)COCc3ccccc3)c2)ccc1-c1cnco1
51 to 1000 nM | Cc1cc(NC(=O)Nc2ccc(-c3cnco3)c(Cl)c2)co1
